Assay results: publication PMC11482831 (bioRxiv, 2024)

By UniProt entry, the sequences of proteins in these tests, tags left out. Where a name states a change or a piece, a line headed by the entry shows the natural chain unless it says otherwise.
UniProt O60896: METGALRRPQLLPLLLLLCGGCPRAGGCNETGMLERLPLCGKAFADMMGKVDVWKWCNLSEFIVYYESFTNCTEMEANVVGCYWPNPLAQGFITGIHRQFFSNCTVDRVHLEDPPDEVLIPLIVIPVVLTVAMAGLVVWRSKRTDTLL

Assays:
[1] = system: AMY2R (HiBiT-CTR:mCitrine-RAMP2); test: CTR:RAMP cell surface proximity BRET assay, AMY2R; assay type: cell-based, human; conditions: 300 nM agonist, HEK293 cells, room temperature, 30 min, pH 7.4
[2] = biological target: T1, AMY3R (HiBiT-CTR:mCitrine-RAMP3) (Homo sapiens, UniProt O60896+P30988); test: CTR:RAMP cell surface proximity BRET assay, AMY3R; assay type: cell-based; conditions: 300 nM agonist, HEK293 cells, room temperature, 30 min, pH 7.4
T1 sequence (P30988 25-474): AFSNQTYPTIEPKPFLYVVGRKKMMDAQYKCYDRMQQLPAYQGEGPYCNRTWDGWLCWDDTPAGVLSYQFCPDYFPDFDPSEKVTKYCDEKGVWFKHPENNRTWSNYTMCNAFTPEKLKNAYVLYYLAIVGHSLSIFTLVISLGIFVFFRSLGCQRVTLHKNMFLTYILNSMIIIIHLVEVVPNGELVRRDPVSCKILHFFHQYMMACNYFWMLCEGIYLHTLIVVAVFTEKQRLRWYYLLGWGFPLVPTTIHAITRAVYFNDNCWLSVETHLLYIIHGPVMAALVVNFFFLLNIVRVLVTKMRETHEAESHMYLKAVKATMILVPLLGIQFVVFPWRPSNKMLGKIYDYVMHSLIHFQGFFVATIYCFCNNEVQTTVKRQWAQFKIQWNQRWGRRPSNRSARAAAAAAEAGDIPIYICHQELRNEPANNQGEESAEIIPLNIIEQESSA

[3] = system: AMY3R (CTR:RAMP3); test: Native PAGE mobility shift assay, single-point, AMY3R; assay type: biochemical, human; conditions: 10 μM agonist, no mGs, detergent-solubilized (LMNG/CHS), in-gel mCitrine fluorescence, qualitative, three replicates
[4] = system: AMY1R (CTR:RAMP1); test: Native PAGE mobility shift assay, single-point, AMY1R; assay type: biochemical, human; conditions: 10 μM agonist, no mGs, detergent-solubilized (LMNG/CHS), in-gel mCitrine fluorescence, qualitative, three replicates

- Change in CTR:RAMP proximity BRET signal, real-time [2]: no effect
Substance: calcitonin gene-related peptide (αCGRP)
- Change in CTR:RAMP proximity BRET signal, real-time [1]: increased the BRET signal
- Change of subunit distribution (AMY3R heterodimer / free RAMP3) [3]: appeared to be unchanged
- Change of subunit distribution (free RAMP1 / AMY1R heterodimer) [4]: reduced free RAMP1 and increased the amount of the AMY1R heterodimer
